Assay results published in patent US20090104257A1 (priority 2007, published 2009).

Assay: Concentration of vancomycin in the lungs of infected mice (Example 9)
Details: IP injections, 4 days after the end of therapy

For `CN[C@H](CC(C)C)C(=O)N[C@H]1C(=O)N[C@@H](CC(N)=O)C(=O)N[C@H]2C(=O)N[C@H]3C(=O)N[C@H](C(=O)N[C@H](C(=O)O)c4cc(O)cc(O)c4-c4cc3ccc4O)[C@H](O)c3ccc(c(Cl)c3)Oc3cc2cc(c3O[C@@H]2O[C@H](CO)[C@@H](O)[C@H](O)[C@H]2O[C@H]2C[C@](C)(N)[C@H](O)[C@H](C)O2)Oc2ccc(cc2Cl)[C@H]1O` [Vancomycin, vancomycin], the “concentration of vancomycin in the lungs” value was “No detectable concentrations”.
